Assay outcomes: PubChem BioAssay, National Center for Advancing Translational Sciences (NCATS)
This is a sample that favours compounds with a hit; in the whole collection about 2.5% have one here.
TrxR1 inh = inhibitors of rat thioredoxin reductase 1. 1% of 390,000 active. Potency, µM (top dose mostly 114 µM), actives largely listed as inhibitors. O89049. recombinant rTrxR1, NADPH fluorescence consumption, selenite substrate; also: nearly all actives have a fitted effect of over 65% in size
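Rat TrxR1 (90 nM in the dispensed reagent) was pre-reduced with 400 uM NADPH for 5 min at room temperature, then incubated with compound for 15 min. After 400 uM selenite was added, NADPH fluorescence (Ex 340/Em 450 nm) was followed for 8 min.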
Apoferritin bind = candidate novel general anesthetic via apoferritin binding; P02791; Potency, µM (top dose mostly 77.5 µM), hits mostly inhibitors; apoferritin/1-aminoanthracene competitive binding, fluorescence; 0.074% of 350,000 active; AID 485281; also: nearly all actives have a fitted effect of over 20% in size
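10 uM apoferritin + 50% sat. 1-AMA, PBS; cpd 10 min RT; Ex380/Em535 endpoint; normalized to free probe vs complex; 4-param Hill fit; propofol titration as pos. ctrl.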
TrxR1 substrate = substrates of rat thioredoxin reductase 1; 0.01% of 390,000 active; Potency, µM (series often up to 114 µM); O89049; purified TrxR1 substrate turnover, NADPH consumption readout; also: nearly all actives have a fitted effect of over 50% in size
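Rat TrxR1, dispensed at 90 nM, was prereduced with 400 uM NADPH (final) for 5 min at ~22 deg C, then incubated with compound 15 min before 400 uM selenite. A first-read NADPH fluorescence drop versus no-compound background flagged substrates.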
miR-21 reporter = miR-21 reporter, rising signal; HeLa miR-21 FLuc reporter, luciferase, 48 h; Potency, µM (doses to about 38.3 µM); 340,000 tested, under 10 active; AID 2288; active = well fitted rising curve with a large enough effect; inconclusive = small, poorly fitted or top-dose-only effect; inactive = no such curve, though single readings can be large or run the other way;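 further: miR-21 action dims this reporter so a rising signal means less miR-21 action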
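HeLa miR-21-FLuc reporter line, endogenous miR-21; 2000 cells/well in DMEM/10% FBS; compound titration up to ~40uM final, 48 h, 37 degree Celsius; luciferase detection reagent, 15 min lysis, CCD luminescence.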
ClpP mod = qHTS Assay for Activators of ClpP | ATP-dependent Clp protease proteolytic subunit (Bacillus subtilis (strain 168)), P80244 | purified B. subtilis ClpP, FRET peptide cleavage, 20 min | Potency, µM (series often up to 57.5 µM) | 1.9% of 340,000 active | AID 651965, 2013; active = well fitted falling curve with a large enough effect; inconclusive = small, poorly fitted or top-dose-only effect; inactive = no such curve, though single readings can be large or run the other way; also: the source files actives as falling curves though it sought activators and does not explain the sign; nearly all actives have a fitted effect of over 65% in size
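Buffer: 100 mM Tris/HCl pH8, 100 mM KCl, 0.05% low protease BSA, 2.5% glycerol, 0.01% Tween-20. ClpP 10 microg/mL final; 20 min RT; delta FRET normalized to ADEP and DMSO controls.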
Numbers stand for hits; ! = not active in a repeat; [ ] = dose if it differs, or a comment. Unless noted, calls follow the shape of the dose curve; as a rule, active = well fitted curve in the direction sought with a large enough effect; inconclusive = small, poorly fitted or top-dose-only effect, or another doubt; inactive = no such curve, though single readings can be large; an effect the other way counts as inactive or inconclusive.

Sequences of proteins named here, by UniProt entry; tags and fusion partners are left off.
ATP-dependent Clp protease proteolytic subunit (Bacillus subtilis (strain 168)), P80244, UniProt P80244, whole entry, looked up: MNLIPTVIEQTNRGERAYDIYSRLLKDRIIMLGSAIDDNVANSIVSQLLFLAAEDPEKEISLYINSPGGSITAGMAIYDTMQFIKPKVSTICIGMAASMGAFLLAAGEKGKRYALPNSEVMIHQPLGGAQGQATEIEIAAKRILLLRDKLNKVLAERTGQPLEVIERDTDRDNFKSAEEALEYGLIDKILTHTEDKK

`COc1ccc(NC(=O)c2cn3c4c(ccc(Cl)c4c2=O)OC(C)C3)cc1OC` (stereo not drawn) gave TrxR1 inh inactive, Apoferritin bind inactive, TrxR1 substrate inactive, miR-21 reporter inactive and ClpP mod inactive.
For COc1cc(/C=C/c2ccc3ccccc3n2)cc(OC)c1OC the results were TrxR1 inh inactive, TrxR1 substrate inactive and ClpP mod inactive.
`CC(=O)Nc1ccc(S(=O)(=O)N[C@@H](C)C(=O)OCc2cc([N+](=O)[O-])cc3c2OCOC3)cc1` gave TrxR1 inh inactive, Apoferritin bind inactive, TrxR1 substrate inactive, miR-21 reporter inactive and ClpP mod inactive.
`CC(C)C(NS(=O)(=O)c1ccccc1)C(=O)OCc1cc([N+](=O)[O-])cc2c1OCOC2` (stereo not drawn) gave TrxR1 inh inactive, Apoferritin bind inconclusive, TrxR1 substrate inactive, miR-21 reporter inactive and ClpP mod 31.6µM.
Cn1c(=O)c2sccc2n2c(CCCC(=O)Nc3ccc(Oc4ccc(Cl)cc4)cc3)nnc12 was read as TrxR1 inh inactive, Apoferritin bind inconclusive, TrxR1 substrate inactive, miR-21 reporter inconclusive and ClpP mod inactive.
Screening Brc1ccc(Nc2c3c(nc4nncn24)CCC3)cc1 returned TrxR1 inh 22.4µM, Apoferritin bind inactive, TrxR1 substrate inactive, miR-21 reporter inactive and ClpP mod inactive.
For Cc1ccc(C)c(-c2ccc(=O)n(Cc3c(F)cccc3Cl)n2)c1 the results were TrxR1 inh inactive, Apoferritin bind 44.7µM!, TrxR1 substrate inactive, miR-21 reporter inconclusive and ClpP mod inactive.
Screening Cc1ccc(-c2ccc(=O)n(Cc3c(F)cccc3Cl)n2)cc1 returned TrxR1 inh inactive, Apoferritin bind inactive, TrxR1 substrate inactive, miR-21 reporter inactive and ClpP mod inactive.
Screening O=c1c(O)c(-c2ccccc2)oc2cc(O)ccc12 returned Apoferritin bind inactive.
For COc1c(C)oc2cc(O)ccc2c1=O the results were TrxR1 inh inconclusive, Apoferritin bind inactive, TrxR1 substrate inactive, miR-21 reporter inactive and ClpP mod 17.8µM.
`Oc1ccc2c(c1)oc1cc(O)ccc12` gave TrxR1 inh inactive, Apoferritin bind inactive, TrxR1 substrate inactive, miR-21 reporter inactive and ClpP mod 31.6µM.
`Cc1oc2cc(O)ccc2c(=O)c1Oc1ccc(F)cc1` gave TrxR1 inh inactive, Apoferritin bind inactive, TrxR1 substrate inactive, miR-21 reporter inactive and ClpP mod inactive.
`CCOC(=O)C1CCN(c2nc3ccccc3nc2C(C#N)C(=O)NCCc2ccccc2)CC1` (stereo not drawn) gave Apoferritin bind 14.1µM and miR-21 reporter inactive.
`CCOC(=O)C1CCCN(c2nc3ccccc3nc2C(C#N)C(=O)OCC)C1` (stereo not drawn) gave TrxR1 inh inactive, Apoferritin bind inactive, TrxR1 substrate inactive, miR-21 reporter inactive and ClpP mod inactive.
`CCOc1ccc(N(C)C(=O)CS(=O)(=O)c2cccc3nsnc23)cc1` gave TrxR1 inh inactive, Apoferritin bind inactive, TrxR1 substrate inactive, miR-21 reporter inactive and ClpP mod inactive.
Screening Nc1ccc(Nc2ccccc2)c(Cl)c1 returned TrxR1 inh inconclusive, Apoferritin bind 7.94µM, TrxR1 substrate inactive[11.4 µM], miR-21 reporter inactive and ClpP mod inactive.
COc1ccccc1Nc1ccc(N)cc1 was read as TrxR1 inh inactive, Apoferritin bind inactive, TrxR1 substrate inactive and miR-21 reporter inactive.
For Nc1ccccc1Nc1ccccc1 the results were TrxR1 inh inactive, Apoferritin bind inactive, TrxR1 substrate inactive, miR-21 reporter inactive and ClpP mod 28.2µM.
Screening CCn1c(=O)c2cc(C(=O)NC3CCC(C)CC3)sc2c2ccccc21 (stereo not drawn) returned TrxR1 inh inactive, Apoferritin bind inactive, TrxR1 substrate inactive, miR-21 reporter inactive and ClpP mod inactive.
For O=C(Nc1ccc(N2CCCC2)cc1)C(Cl)c1ccccc1 (stereo not drawn) the results were TrxR1 inh 15.8µM, Apoferritin bind inactive, TrxR1 substrate inactive, miR-21 reporter inactive and ClpP mod inactive.
`CCOC(=O)c1c(NC(=O)C(C)Sc2cn(CCNC(=O)c3ccc(OC)c(OC)c3)c3ccccc23)sc2c1CCC2` (stereo not drawn) gave TrxR1 inh inactive, Apoferritin bind inactive, TrxR1 substrate inactive, miR-21 reporter inactive and ClpP mod inactive.
Screening CCC(=O)Nn1cnc2c(c1=O)C1(CCCCC1)Cc1ccccc1-2 returned TrxR1 inh inactive, Apoferritin bind inconclusive, TrxR1 substrate inactive, miR-21 reporter inactive and ClpP mod inactive.
`Nc1ncnc2c1C1(CCCCC1)Cc1ccccc1-2` gave TrxR1 inh inactive, Apoferritin bind inactive, TrxR1 substrate inactive, miR-21 reporter inactive and ClpP mod 15.8µM.
`c1ccc(OCc2nc3c4c(ncn3n2)-c2ccccc2CC42CCCC2)cc1` gave TrxR1 inh inactive, Apoferritin bind inactive, TrxR1 substrate inactive, miR-21 reporter inactive and ClpP mod 12.6µM.
`Nc1n[nH]c2c1C1(CCCCC1)Cc1ccccc1-2` gave TrxR1 inh inactive, Apoferritin bind inconclusive, TrxR1 substrate inactive, miR-21 reporter inactive and ClpP mod inactive.
For COc1cccc(Cn2c(=O)n(-c3cccc(Cl)c3C)c(=O)c3c4c(sc32)CN(C(C)=O)CC4)c1 the results were TrxR1 inh inactive, Apoferritin bind inactive, TrxR1 substrate inactive, miR-21 reporter inactive and ClpP mod inactive.
Screening NC(=O)c1c(/N=C/c2cccs2)sc2c1CCCC2 returned TrxR1 inh 39.8µM, Apoferritin bind inactive, TrxR1 substrate inactive, miR-21 reporter inactive and ClpP mod inactive.
`O=C(/C=C/c1cccs1)Nc1sc2c(c1C(=O)O)CCCC2` gave TrxR1 inh inactive, Apoferritin bind inactive, TrxR1 substrate inactive, miR-21 reporter inconclusive and ClpP mod inactive.
For COc1ccc(-c2nc3ccccc3s2)cc1O the results were TrxR1 inh inactive, Apoferritin bind inactive, TrxR1 substrate inactive, miR-21 reporter inactive and ClpP mod inactive.
For COc1cc(-c2nc3ccccc3s2)ccc1O the results were TrxR1 inh inactive, Apoferritin bind inactive, TrxR1 substrate inactive, miR-21 reporter inactive and ClpP mod 8.91µM.
O=C(Nc1nnc(-c2ccco2)s1)C1CC1 was read as TrxR1 inh inconclusive, Apoferritin bind inactive, TrxR1 substrate inactive, miR-21 reporter inactive and ClpP mod 31.6µM.
`CCCCCc1nc(N)c(C#N)c(-c2ccco2)c1CCCC` gave TrxR1 inh inactive, Apoferritin bind inactive, TrxR1 substrate inactive, miR-21 reporter inactive and ClpP mod 25.1µM.
CCN(CC)c1nc2c(S(=O)(=O)c3ccccc3)nnn2c2ccc(Cl)cc12 was read as TrxR1 inh inactive, Apoferritin bind inconclusive, TrxR1 substrate inactive, miR-21 reporter inactive and ClpP mod inconclusive.
For O=C(c1ccc2c(c1)OCCO2)N1CCN(c2nc(-c3cccs3)nc3ccccc23)CC1 the results were TrxR1 inh inactive, TrxR1 substrate inactive and ClpP mod inconclusive.
